Measured values as given in patent US4016193A, “Novel substituted phenylacetic acid derivatives and a process for preparing thereof” (Mitsubishi Yuka Pharmaceutical Co., Ltd., priority 1974, dated 1977).

Assays:
[1] = tested on: writhing syndrome caused by acetic acid; test: Analgesic activity, acetic acid writhing method, oral; type: in vivo, dd origin male mice; settings: ratio of ED50 values; methyl 3-nitro-4-allyloxyphenylacetate defined as 1
Procedure: (b) The analgesic activity was measured by means of acetic and writhing
10dd origin male mice weighing 17 -
25g were used as one group after 18 hours of fasting. After oral
administration of the test compounds the frequencies of writhing syndrome
caused by intraperitoneal administration of 0.1 ml/10g of a 0.6% acetic
acid were measured for 20 minutes. The frequencies of writhing syndrome
which are below 50% of those of the control group were defined as
analgesic activity (+) and the ED50 values were calculated by means of
Litchfield-Wilcoxon method. The ED50 value of methyl
3-nitro-4-allyloxyphenylacetate is defined as 1 and the activity ratios of
the test compounds were expressed as ratio of ED50 values. The test
compounds were administered as a suspension such as are adjusted to be 0.1
ml/10g in a 1% tragacanth solution. A 1% tragacanth solution was
administered to the control group.

in vivo = settings: rat, po, orally, rats

Compound: C=CCOc1ccc(CC(=O)O)cc1Cl [3-chloro-4-allyloxyphenylacetic acid]
- activity ratio [1]: 0.54
- LD50 (in vivo; female): 1630 mg/kg
- LD50 (in vivo; male): 1700 mg/kg
